Experimental data: article PMC8442681 (Chemical Science, 2021)

Test system: acute myeloid leukemia (AML) cell line HL60
Settings: 72 h co-treatment of HL60 with bortezomib

## O=C(CCCCCCC(=O)Nc1ccccc1)NO [SAHA, suberoylanilide hydroxamic acid]
  ZIP synergy score (mean): 7.18
